Test results from patent US20260159499A1, “COMPOUND AS FAK INHIBITOR AND USE THEREOF” (WIGEN BIOMEDICINE TECHNOLOGY (SHANGHAI) CO., LTD., priority 2021, published 2026).

Amino acid sequences for entries named in this document (tags omitted).
UniProt Q05397, whole entry: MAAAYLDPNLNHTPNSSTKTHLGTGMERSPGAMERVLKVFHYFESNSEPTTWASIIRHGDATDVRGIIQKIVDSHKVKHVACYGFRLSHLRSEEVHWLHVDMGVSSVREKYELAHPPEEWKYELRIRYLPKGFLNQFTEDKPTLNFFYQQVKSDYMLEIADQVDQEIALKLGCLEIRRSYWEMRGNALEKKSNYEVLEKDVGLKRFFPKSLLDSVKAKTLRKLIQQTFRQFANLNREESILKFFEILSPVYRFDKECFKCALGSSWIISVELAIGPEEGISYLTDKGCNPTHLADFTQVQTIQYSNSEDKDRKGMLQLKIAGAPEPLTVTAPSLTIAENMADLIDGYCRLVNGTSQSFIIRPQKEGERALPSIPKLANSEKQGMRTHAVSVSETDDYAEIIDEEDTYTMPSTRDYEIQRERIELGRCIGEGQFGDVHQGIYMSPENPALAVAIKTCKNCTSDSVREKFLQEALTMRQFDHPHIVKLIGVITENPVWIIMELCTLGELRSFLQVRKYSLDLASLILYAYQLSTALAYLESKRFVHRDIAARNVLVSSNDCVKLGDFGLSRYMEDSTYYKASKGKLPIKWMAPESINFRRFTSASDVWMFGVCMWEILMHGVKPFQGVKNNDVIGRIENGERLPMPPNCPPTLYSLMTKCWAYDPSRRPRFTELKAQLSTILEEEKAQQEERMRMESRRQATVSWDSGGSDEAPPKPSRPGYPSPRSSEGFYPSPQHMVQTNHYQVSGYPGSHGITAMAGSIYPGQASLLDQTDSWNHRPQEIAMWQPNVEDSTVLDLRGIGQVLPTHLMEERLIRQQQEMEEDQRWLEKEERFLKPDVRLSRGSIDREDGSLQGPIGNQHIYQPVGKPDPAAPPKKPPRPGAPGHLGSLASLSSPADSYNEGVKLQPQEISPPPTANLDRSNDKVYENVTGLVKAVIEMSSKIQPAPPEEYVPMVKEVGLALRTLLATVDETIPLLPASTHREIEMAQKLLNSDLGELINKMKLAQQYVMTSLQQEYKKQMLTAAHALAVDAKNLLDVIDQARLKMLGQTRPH

Key:
[1] = In vivo pharmacokinetic experiment in mice; conditions: CD-1 mice
FAK recombinant protein = FAK recombinant protein (Homo sapiens, UniProt Q05397); test: Inhibitory activity against FAK enzyme; conditions: read-out: Inhibitory activity against FAK enzyme IC50, TK substrate, ATP
PC3 cells [2] = test: PC3 cell proliferation, 2D activity detection; type: cell-based, human; conditions: read-out: 2D IC50 against PC3 cells; PC3, 2D, 72 h, class symbol
PC3 cells [3] = test: PC3 cell proliferation, 3D activity detection; type: cell-based, human; conditions: read-out: 3D IC50 against PC3 cells; PC3, 3D culture, 14 days, class symbol

IC50 (FAK recombinant protein) [nM]	IC50 (PC3 cells [2]) [nM]	IC50 (PC3 cells [3]) [nM]	SMILES	AUC0-last ([1]; injection (IV) 2 mg/kg) [ng·h/mL]	Cl ([1]; injection (IV) 2 mg/kg) [mL/min/kg]	T1/2 ([1]; injection (IV) 2 mg/kg) [h]	Vdss ([1]; injection (IV) 2 mg/kg) [L/kg]	Cmax ([1]; oral administration 10 mg/kg) [ng/mL]	T1/2 ([1]; oral administration 10 mg/kg) [h]	Tmax ([1]; oral administration 10 mg/kg) [h]	F % ([1]; oral administration 10 mg/kg vs injection) [%]
–	–	–	COc1cc(C(=O)NC2CCN(C)CC2)c(F)cc1Nc1ncc(C(F)(F)F)c(Oc2cccc3c2C(=O)N(C)C3)n1	1479.26	22.53	3.62	5.03	635.67	3.10	4	100.72
< 10	> 2000	5 to 50	C=Cc1cc(C(=O)NC2CC3(CCN(C)CC3)C2)c(F)cc1Nc1ncc(C(F)(F)F)c(Oc2cccc3c2C(=O)N(C)C3)n1	–	–	–	–	–	–	–	–
